Consider 2 compounds from ChEMBL document CHEMBL1142826, “Structure based approach to the design of bicyclic-1H-isoindole-1,3(2H)-dione based androgen receptor antagonists” (Bioorg Med Chem Lett, 2005).

The chains behind the UniProt entries cited, without tags or fusion partners. Where a name states a change or a piece, a line headed by the entry shows the natural chain unless it says otherwise.
UniProt P10275: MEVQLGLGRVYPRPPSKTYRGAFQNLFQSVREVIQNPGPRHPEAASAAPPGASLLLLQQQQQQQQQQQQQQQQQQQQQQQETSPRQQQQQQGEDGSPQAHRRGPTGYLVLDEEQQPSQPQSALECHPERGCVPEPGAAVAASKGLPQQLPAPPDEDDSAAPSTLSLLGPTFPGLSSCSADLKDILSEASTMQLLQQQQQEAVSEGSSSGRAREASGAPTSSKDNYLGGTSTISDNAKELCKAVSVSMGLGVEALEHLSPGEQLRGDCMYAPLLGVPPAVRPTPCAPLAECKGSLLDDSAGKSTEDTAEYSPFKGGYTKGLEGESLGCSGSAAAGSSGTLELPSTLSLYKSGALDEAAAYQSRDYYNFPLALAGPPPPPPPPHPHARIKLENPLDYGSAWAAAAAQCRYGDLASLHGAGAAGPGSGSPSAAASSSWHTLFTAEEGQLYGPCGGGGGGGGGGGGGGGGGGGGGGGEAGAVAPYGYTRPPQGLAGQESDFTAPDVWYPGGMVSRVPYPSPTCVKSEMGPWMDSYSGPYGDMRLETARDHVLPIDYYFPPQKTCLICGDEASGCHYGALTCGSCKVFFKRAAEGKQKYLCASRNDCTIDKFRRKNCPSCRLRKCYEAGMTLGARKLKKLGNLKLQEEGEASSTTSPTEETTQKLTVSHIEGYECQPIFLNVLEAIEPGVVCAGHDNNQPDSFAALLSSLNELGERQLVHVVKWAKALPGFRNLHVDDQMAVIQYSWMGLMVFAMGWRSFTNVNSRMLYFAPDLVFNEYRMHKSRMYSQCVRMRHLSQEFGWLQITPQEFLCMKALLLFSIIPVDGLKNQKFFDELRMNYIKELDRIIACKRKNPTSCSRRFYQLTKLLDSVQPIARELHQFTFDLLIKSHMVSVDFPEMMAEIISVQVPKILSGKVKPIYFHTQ

The term Ki denotes the dissociation constant of the complex between target and ligand, obtained from inhibition or displacement. Low readings indicate higher affinity, high ones lower affinity.

This assay deals with Androgen receptor (Homo sapiens, UniProt P10275). Put plainly: Binding affinity for androgen receptor in human MDA-453 cells.

As for `O=C1[C@@H]2C3C=CC([C@H]4C[C@@H]34)[C@@H]2C(=O)N1c1cccc(C(F)(F)F)c1`, the Ki was found to be 3200 nM. That is a single-digit micromolar value.
On to `Cc1cc(N2C(=O)[C@@H]3C4C=CC(CC4)[C@@H]3C2=O)ccc1Br`, for which the Ki was found to be 171 nM.
